Experimental data: patent publication US20090196917A1, “Liposomal Formulations of Hydrophobic Lactone Drugs in the Presence of Metal Ions” (University of Kentucky Research Foundation, priority 2008, published 2009)

Assay: Active loading of DB-67 into Ca(OAc)2 DSPC/m-PEG DSPE vesicles (Example 15)
Conditions: 0.25 M Ca(OAc)2 vesicles, 60 mg DSPC/mL, 40° C., ~50 h

suspension concentration of DB-67 at the end of the loading: ~9.2 mM
SMILES: CC[C@@]1(O)C(=O)OCc2c1cc1n(c2=O)Cc2c-1nc1ccc(O)cc1c2[Si](C)(C)C(C)(C)C [DB-67, silatecan 7-t-butyldimethylsilyl-10-hydroxycamptothecin]
